Test results reported in patent US20070135514A1, “Methods for the identification of agents for the treatment of seizures, neurological diseases, endocrinopathies and hormonal diseases” (priority 2002, published 2007).

Sequences of proteins named here, by UniProt entry; tags and fusion partners are left off.
UniProt Q02563, whole entry: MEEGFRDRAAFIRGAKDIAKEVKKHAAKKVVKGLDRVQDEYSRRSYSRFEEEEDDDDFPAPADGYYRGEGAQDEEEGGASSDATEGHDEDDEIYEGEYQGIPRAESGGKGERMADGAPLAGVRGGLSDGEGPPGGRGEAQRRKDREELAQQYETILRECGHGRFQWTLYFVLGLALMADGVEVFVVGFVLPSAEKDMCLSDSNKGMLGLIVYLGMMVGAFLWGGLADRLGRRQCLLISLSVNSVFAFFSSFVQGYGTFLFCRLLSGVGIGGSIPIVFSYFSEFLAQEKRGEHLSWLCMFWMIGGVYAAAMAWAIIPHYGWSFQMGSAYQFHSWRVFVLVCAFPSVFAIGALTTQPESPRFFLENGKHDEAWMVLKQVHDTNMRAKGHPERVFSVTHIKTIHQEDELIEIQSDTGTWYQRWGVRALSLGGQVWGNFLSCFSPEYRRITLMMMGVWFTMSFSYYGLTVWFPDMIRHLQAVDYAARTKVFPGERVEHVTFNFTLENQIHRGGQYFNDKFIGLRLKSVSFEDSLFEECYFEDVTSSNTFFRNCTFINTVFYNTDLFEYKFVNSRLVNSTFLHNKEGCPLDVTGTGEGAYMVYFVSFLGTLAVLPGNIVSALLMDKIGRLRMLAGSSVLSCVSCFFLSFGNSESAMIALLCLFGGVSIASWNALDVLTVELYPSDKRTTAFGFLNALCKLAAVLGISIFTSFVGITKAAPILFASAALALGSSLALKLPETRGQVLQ

What was measured:
[1] = molecular target: T1, levetiracetam binding site (LBS) (Rattus norvegicus, UniProt Q02563); assay: [3H]ucb 30889 binding to crude rat brain membranes (kinetic, saturation, competition); conditions: substance used as radioligand
T1 construct: host or cells: crude rat brain membranes (Noyer et al. 1995; Gillard et al. 2003)
Protocol: This example describes the binding properties of [^3H]ucb 30889, (2S)-2-[4-(3-azidophenyl)-2-oxopyrrolidin-1-yl]butanamide, an analogue of levetiracetam. Binding experiments were conducted on crude rat brain membranes at 4° C. as described in Noyer et al. (Euro. J. Pharmacol. 286:137-146 (1995)). Incubation time for equilibrium studies was 120 min. For kinetic and competition studies, [^3H]ucb 30889 (30 Ci/mmol) was used at a concentration of 1.3 nM in 0.5 ml of a Tris-HCl (pH 7.4) buffer containing 2 mM Mg^2+. Localization of the LBS in brain substructures was assessed by autoradiography on 25 μm thick slices incubated under similar conditions. Slides were then washed twice for 10 min at 4° C. in 50 mM Tris-HCl (pH 7.4) containing 0.5% BSA, dried and exposed for 3 weeks to [^3H]Hyperfilm at −20° C. Non-specific binding (NSB) was determined by the inclusion of 1 mM LEV during the incubation period.

[2] = molecular target: T1, levetiracetam binding site (LBS); conditions: cited from earlier work

CC[C@@H](C(N)=O)N1CCCC1=O [levetiracetam, (S)-α-ethyl-2-oxo-1-pyrrolidine acetamide]
Bmax (saturation binding) [1]: 4718±413 fmol/mg protein

CC[C@@H](C(N)=O)N1CCCC1=O [ucb L060]
affinity relative to levetiracetam (times less) [2]: about 1000 times
